Data set [1] has as its system PON1. The data set is described as follows: in vitro. As to conditions: female, human, pH 7.4, Km(app).
Data set [2] deals with PON1 in plasma. Kind of data set: in vitro. The note with it: human.

As a reminder, the Km is the concentration of substrate that gives half-maximal velocity. Take `CCOP(=O)(OCC)Oc1nc(Cl)c(Cl)cc1Cl` [CPO, chlorpyrifos-oxon]: the Km in data set [1] was found to be 201 µM; in data set [2] (both, pH 7.4, Km (mean)), 290 µM; in data set [2] (female, pH 7.4, Km(app)) it was 226 µM.
